From ChEMBL document CHEMBL5143570, “Development of naringenin-O-carbamate derivatives as multi-target-directed liagnds for the treatment of Alzheimer's disease” (Bioorg Med Chem Lett, 2022)

Organism: Rattus norvegicus
Assay: Selectivity index, ratio of IC50 for inhibition of rat serum butyrylcholine esterase to IC50 for inhibition of rat cortex AChE

Compound: CN(C)C(=O)Oc1ccc(C2CC(=O)c3c(O)cc(OC(=O)N(C)C)cc3O2)cc1 (stereo unspecified)
- Ratio IC50: 1.9
